This note sets out measurements from paper PMC9770395 (PLOS Neglected Tropical Diseases, 2022).

Experiment [1] has as its system intracellular cAMP levels in T84 cells. As to conditions: 20 μM; 1 h.
In experiment [2] the test system is intracellular Ca^2+ levels in T84 cells. As to conditions: 20 μM.

As to `CC[C@H](C)C(=O)O[C@H]1C[C@@H](C)C=C2C=C[C@H](C)[C@H](CC[C@@H]3CC=CC(=O)O3)[C@H]21` [DHLV, α,β-dehydrolovastatin], the “Effect on intracellular cAMP levels” value in experiment [1] is on record as “did not affect”. Also, the “Effect on ATP-induced intracellular Ca^2+ elevation (AUC)” value in experiment [2] is “no significant effects”.
